Protein sequences, listed by entry. Tags and fused reporters are not part of them. Residues count along the entry.
UniProt Q02242, 25-169 limits assumed: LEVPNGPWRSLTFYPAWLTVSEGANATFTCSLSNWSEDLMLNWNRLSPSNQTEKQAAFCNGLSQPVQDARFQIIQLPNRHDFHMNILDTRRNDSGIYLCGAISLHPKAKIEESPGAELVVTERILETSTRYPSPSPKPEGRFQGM
UniProt Q9EP73, 19-290 limits assumed: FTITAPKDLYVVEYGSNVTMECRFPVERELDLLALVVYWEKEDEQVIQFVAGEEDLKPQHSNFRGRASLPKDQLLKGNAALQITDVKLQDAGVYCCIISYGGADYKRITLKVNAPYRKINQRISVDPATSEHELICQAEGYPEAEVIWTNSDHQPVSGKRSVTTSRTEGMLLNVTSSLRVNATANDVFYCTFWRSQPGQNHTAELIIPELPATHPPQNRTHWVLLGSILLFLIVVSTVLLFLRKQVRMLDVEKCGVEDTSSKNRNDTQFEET

In article PMC8160380:

Tests used:
mPD-1 = mPD-1 (Mus musculus, UniProt Q02242); experiment: SPR (Biacore T200), immobilized purified protein, […] model
mPD-L1 = mPD-L1 (Mus musculus, UniProt Q9EP73); experiment: as above

Question: `COc1cc(OCc2cccc(-c3ccccc3)c2C)cc(OC)c1CN1CCCCC1C(=O)O` (centres unmarked) was tested. Which Kd (mPD-1) did it give?
Answer: The Kd was 41.6 nM.

Question: And the Kd (mPD-L1)?
Answer: Its Kd is 125 nM.
